Biological target: CDK2/cyclin A complex (human, UniProt P24941 1-298; P20248 173-432)
Test: cell-based or functional assay

RRLF (C-terminal amide) [H-Arg-Arg-Leu-Phe-NH2]
CDK2/cyclin A kinase activity IC50: > 50 µM
